These are literature values, as cited in patent US7521479B2 (priority 2001, dated 2009).

Amino acid sequences for entries named in this document (tags omitted). Residues count along the entry.
UniProt P05067, 672-711 limits assumed: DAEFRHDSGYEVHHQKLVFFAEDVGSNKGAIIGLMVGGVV

SMILES strings stand for the structures.

The target in the data set is Aβ1-40 (Homo sapiens, UniProt P05067). Particulars: cited from earlier work.

Turning to `O=C1C=CC(=O)C=C1` [p-benzoquinone], the “inhibition of Aβ1-40 aggregation and neurotoxicity” value is “inhibit Aβ1-40 aggregation and neurotoxicity at comparable molar concentrations to rifampicin”.
